This is an account of results in patent EP1161438B1, “6-O-SUBSTITUTED MACROLIDES HAVING ANTIBACTERIAL ACTIVITY” (ABBOTT LABORATORIES, priority 1999, dated 2000).

What is called MIC is the lowest concentration that inhibits growth of the organism.

SMILES strings stand for the structures.

This experiment relates to Streptococcus Pneumonia 5979. As to the kind of experiment: Agar dilution antibacterial MIC assay. It is filed as cell-based. The following applies: organism code ZZ, BHI agar, 35-37 °C, 20 to 24 hours, unit assumed. On the procedure:
Representative compounds of the present invention were assayed in vitro for antibacterial activity as follows: Twelve petri dishes containing successive aqueous dilutions of the test compound mixed with 10 mL of sterilized Brain Heart Infusion (BHI) agar (Difco 0418-01-5) were prepared. Each plate was inoculated with 1:100 (or 1:10 for slow-growing strains, such as Micrococcus and Streptococcus) dilutions of up to 32 different microorganisms, using a Steers replicator block. The inoculated plates were incubated at 35-37 °C for 20 to 24 hours. In addition, a control plate, using BHI agar containing no test compound, was prepared and incubated at the beginning and end of each test.
An additional plate containing a compound having known susceptibility patterns for the organisms being tested and belonging to the same antibiotic class as the test compound was also prepared and incubated as a further control, as well as to provide test-to-test comparability. Erythromycin A was used for this purpose.
After incubation, each plate was visually inspected. The minimum inhibitory concentration (MIC) was defined as the lowest concentration of drug yielding no growth, a slight haze, or sparsely isolated colonies on the inoculum spot as compared to the growth control.
For orientation: In agar dilution the substance is mixed into plates at graded concentrations.

Turning to `CC[C@H]1OC(=O)[C@H](C)[C@@H](O[C@H]2C[C@@](C)(OC)[C@@H](O)[C@H](C)O2)[C@H](C)[C@@H](O[C@@H]2O[C@H](C)C[C@H](N(C)C)[C@H]2O)[C@](C)(O)C[C@@H](C)C(=O)[C@H](C)[C@@H](O)[C@]1(C)O` [Ery. A standard, Erythromycin A, reference compound], the MIC is > 128 µg/mL.
